{
  "sequences": {"note": "Chains of the proteins cited; added tags and fusions are not shown.", "UniProt O15296, whole entry": "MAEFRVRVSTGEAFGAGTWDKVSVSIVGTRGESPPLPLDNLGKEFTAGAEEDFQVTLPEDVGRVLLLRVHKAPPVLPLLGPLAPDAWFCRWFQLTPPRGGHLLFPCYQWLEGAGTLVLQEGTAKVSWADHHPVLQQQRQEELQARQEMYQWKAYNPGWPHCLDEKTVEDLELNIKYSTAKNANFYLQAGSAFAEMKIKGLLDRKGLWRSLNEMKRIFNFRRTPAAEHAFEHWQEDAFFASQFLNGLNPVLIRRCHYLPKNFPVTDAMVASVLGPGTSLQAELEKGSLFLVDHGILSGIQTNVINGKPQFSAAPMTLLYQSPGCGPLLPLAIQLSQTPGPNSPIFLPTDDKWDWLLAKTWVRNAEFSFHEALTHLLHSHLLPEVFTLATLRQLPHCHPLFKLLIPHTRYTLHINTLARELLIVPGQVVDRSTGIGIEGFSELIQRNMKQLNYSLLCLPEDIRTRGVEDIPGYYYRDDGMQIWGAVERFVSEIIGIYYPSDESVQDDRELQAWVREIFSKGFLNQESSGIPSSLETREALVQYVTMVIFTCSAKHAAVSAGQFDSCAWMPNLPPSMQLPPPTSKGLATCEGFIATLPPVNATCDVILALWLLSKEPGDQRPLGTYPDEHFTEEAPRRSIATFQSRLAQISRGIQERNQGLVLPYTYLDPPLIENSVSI"},
  "source": "PubChem BioAssay AID881",
  "about": "(National Center for Advancing Translational Sciences (NCATS), 2007)",
  "note": "This is a selection; strong and weak results do not stand in their true shares. Active and inactive are the calls of the source. Calls follow the shape of the dose curve; as a rule, active = well fitted inhibition curve with a large enough effect; inconclusive = small, poorly fitted or top-dose-only effect; inactive = no such curve, though single readings can be large or run the other way. % is scaled to controls: 0 for no effect and ±100 for the full control effect.",
  "data": [
    {"target": "Polyunsaturated fatty acid lipoxygenase ALOX15B (Homo sapiens) (UniProt O15296)", "test": "qHTS Assay for Inhibitors of 15-hLO-2 (15-human lipoxygenase 2); also: nearly all actives have a fitted effect of over 60% in size", "conditions": "purified 15hLO-2, xylenol orange hydroperoxide absorbance; at 57.1 µM (top of the series) unless noted", "description": "Assay Overview: NIH Molecular Libraries Screening Centers Network [MLSCN] NIH Chemical Genomics Center [NCGC] MLSCN Grant: MH081283-01A1 PI Name: Holman, T.R., University of California, Santa Cruz Human lipoxygenase 15hLO-2 is a member of the closely related lipoxygenase family of enzymes which catalyze the site-specific oxidation of arachidonic acid to various hormone precursor molecules and as such is a candidate for drug development in a variety of disease areas, such as cancer and inflammation. Inhibition of 15hLO-2 activity was screened by utilizing arachidonic acid as a substrate. The extent of hydroperoxide product formation was measured by a secondary chromogenic reaction in which xylenol orange (XO, Sigma-Aldrich, cat. number 39,818-7) reacts with the ferric ions produced from the reaction between the hydroperoxide and ferrous ions. The Fe(III)-XO complex is characterized with red-shifted absorbance at 560 nm. A purified preparation of human 15hLO-2 was supplied by Professor Ted Holman, University of California, Santa Cruz.\nAssay Protocol: Buffer: 25 mM Hepes pH 7.5, 0.01% Triton X-100. Reagents/Controls: Buffer in columns 3 and 4 as negative control (no enzyme). Substrate solution: 45 uM arachidonic acid (Sigma-Aldrich, St. Louis, MO) final concentration dispensed throughout the plate. Enzyme: 50 nM 15hLO-2 final concentration in columns 1, 2, 5-48. Column 1 is neutral (100% activity). Column 2 contained pin-transferred titration of NDGA (nordihidroguaiaretic acid, Sigma-Aldrich, N 5023, top concentration 10 mM in DMSO, then 1:2 dilution in duplicate). (Dilution factor: 23 nL into 4 uL.) Chromogenic detection reagent (divalent iron/xylenol orange, Fe-XO): 200 uM xylenol orange plus 300 uM ferrous ammonium sulfate prepared freshly in 50 mM sulfuric acid. Assay Steps: Three uL of enzyme were dispensed to 1536-well Greiner black clear bottom plates. Compounds and controls (23 nL) were transferred via Kalypsys PinTool. The plates were incubated for 15 min at room temperature, and then 1 uL of substrate solution was added to start the reaction. After room temperature incubation for 90 minutes, 4 uL of Fe-XO solution was added to each well followed by a short spin (1000 rpm, 15 sec) and the plates were then incubated for 30 min. The absorbance at 405 and 573 nm were measured using ViewLux (Perkin-Elmer) High-throughput CCD imager and absorbance protocol settings. The 573-to-405 absorbance ratio was used to compute reaction progress.", "values": [
      {"smiles": "C/C1=C2N=C(/C=C3N=C(/C(C)=C4\\[N-][C@@](C)([C@H]5N=C1[C@@](C)(CCC(=O)NC[C@H](C)OP(=O)([O-])O[C@@H]1[C@H](O)[C@H](n6cnc7cc(C)c(C)cc76)O[C@@H]1CO)[C@@H]5CC(N)=O)[C@](C)(CC(N)=O)[C@H]4CCC(N)=O)[C@@](C)(CC(N)=O)[C@@H]\\3CCC(N)=O)C(C)(C)[C@@H]/2CCC(N)=O.[C-]#N.[Co+3]", "activity change, negative = inhibition": "inactive: -0.147% [at 25.6 µM]"},
      {"smiles": "CP(=O)(OC12CC3CC(CC(C3)C1)C2)OC12CC3CC(CC(C3)C1)C2", "activity change, negative = inhibition": "inactive: 7.58%"},
      {"smiles": "CP(=O)(Nc1ccc(Cl)cc1)Oc1ccc(F)cc1", "note": "(stereo unspecified)", "activity change, negative = inhibition": "inactive: 1.46%"},
      {"smiles": "CC(C)(C)c1ccc(OP(C)(=O)O)cc1", "activity change, negative = inhibition": "inactive: 0.407%"},
      {"smiles": "N#[O+].[C-]#N.[C-]#N.[C-]#N.[C-]#N.[C-]#N.[Fe+2].[Na+].[Na+]", "activity change, negative = inhibition": "inactive: 6.49%"},
      {"smiles": "CCN(CC)CC(O)COC(=O)C(O)(c1ccccc1)C1CCCCC1", "note": "(stereo unspecified)", "activity change, negative = inhibition": "inactive: 12.2%"},
      {"smiles": "CP(=O)(Oc1ccccc1)N1CCOC1=O", "note": "(stereo unspecified)", "activity change, negative = inhibition": "inactive: 1.17%"},
      {"smiles": "OCCSCCO", "activity change, negative = inhibition": "inactive: -2.98%"},
      {"smiles": "COc1ccccc1OP(C)(=O)Nc1c(C)n(C)n(-c2ccccc2)c1=O", "note": "(stereo unspecified)", "activity change, negative = inhibition": "inactive: 1.89%"},
      {"smiles": "Cc1c(NP(C)(=O)Oc2ccc(C(C)C)cc2)c(=O)n(-c2ccccc2)n1C", "note": "(stereo unspecified)", "activity change, negative = inhibition": "inactive: 2.73%"},
      {"smiles": "COc1ccccc1OP(C)(=O)Nc1ccc(C)cc1C", "note": "(stereo unspecified)", "activity change, negative = inhibition": "inactive: 0.644%"},
      {"smiles": "CP(=O)(Nc1ccccn1)Oc1ccccc1", "note": "(stereo unspecified)", "activity change, negative = inhibition": "inactive: 2.75%"},
      {"smiles": "CN(C)CCOC(=O)C(O)(c1ccccc1)C1CCCC1", "note": "(stereo unspecified)", "activity change, negative = inhibition": "inactive: 1.06%"},
      {"smiles": "COc1ccc(OP(C)(=O)Nc2ccccn2)cc1", "note": "(stereo unspecified)", "activity change, negative = inhibition": "inactive: 3.33%"},
      {"smiles": "COc1ccccc1OP(C)(=O)Nc1ccc(C)c(C)c1", "note": "(stereo unspecified)", "activity change, negative = inhibition": "inactive: -3.98%"},
      {"smiles": "CP(=O)(Nc1ccccc1)Oc1ccc(F)cc1", "note": "(stereo unspecified)", "activity change, negative = inhibition": "inactive: -4.27%"},
      {"smiles": "Cc1cccc([N+](=O)[O-])c1[N+](=O)[O-]", "activity change, negative = inhibition": "inactive: -2.15%"},
      {"smiles": "CCC(C)(OO)OOC(C)(CC)OO", "note": "(stereo unspecified)", "activity change, negative = inhibition": "inactive: 9.82%"},
      {"smiles": "CP(=O)(Nc1ccccc1F)Oc1ccccc1", "note": "(stereo unspecified)", "activity change, negative = inhibition": "inactive: 3.29%"},
      {"smiles": "NNC(NN)NN.n1nc(-c2nn[nH]n2)n[nH]1", "activity change, negative = inhibition": "inactive: -7.66% [at 11.4 µM]"},
      {"smiles": "[NH4+].[O-][Cl+3]([O-])([O-])[O-]", "activity change, negative = inhibition": "inactive: -9.4%"},
      {"smiles": "CCN(CCCl)Cc1ccccc1C", "activity change, negative = inhibition": "inactive: -5.55%"},
      {"smiles": "Cc1ccccc1NP(C)(=O)Nc1ccccc1C", "activity change, negative = inhibition": "inactive: 11.2%"},
      {"smiles": "CCOP(=O)(CC)OCC", "activity change, negative = inhibition": "inactive: -9.2%"},
      {"smiles": "CCOP(C)(=S)SCC(=O)NC(C)(CC)C(=O)O", "note": "(stereo unspecified)", "activity change, negative = inhibition": "inactive: -13.1% [at 11.4 µM]"},
      {"smiles": "Cc1ccc([N+](=O)[O-])c([N+](=O)[O-])c1", "activity change, negative = inhibition": "inactive: -4.6%"},
      {"smiles": "Cc1c([N+](=O)[O-])cccc1[N+](=O)[O-]", "activity change, negative = inhibition": "inactive: -7.61%"},
      {"smiles": "COc1ccc(OP(C)(=O)Nc2cccc(Br)c2)cc1", "note": "(stereo unspecified)", "activity change, negative = inhibition": "inactive: 6.54%"},
      {"smiles": "CN(C)CCOC(=O)C(O)(c1ccccc1)C1CCCCC1", "note": "(stereo unspecified)", "activity change, negative = inhibition": "inactive: 7.44% [at 11.4 µM]"},
      {"smiles": "COc1ccccc1OP(C)(=O)Nc1c(C)cccc1C", "note": "(stereo unspecified)", "activity change, negative = inhibition": "inactive: 3.5%"},
      {"smiles": "Cc1nc2ccc3ccccc3c2s1.O=[N+]([O-])c1cc([N+](=O)[O-])c(O)c([N+](=O)[O-])c1", "activity change, negative = inhibition": "inactive: -21.9%"},
      {"smiles": "Cc1cc(C)cc(OP(C)(=O)Nc2ccccn2)c1", "note": "(stereo unspecified)", "activity change, negative = inhibition": "inactive: 5.26%"},
      {"smiles": "Cc1ccc(C)c(NP(C)(=O)Oc2ccccc2)c1", "note": "(stereo unspecified)", "activity change, negative = inhibition": "inactive: -4%"},
      {"smiles": "Cc1cc(C)cc(OP(C)(=O)Nc2ccc(C)cc2C)c1", "note": "(stereo unspecified)", "activity change, negative = inhibition": "inactive: 4.3%"},
      {"smiles": "Cc1ccc([N+](=O)[O-])cc1[N+](=O)[O-]", "activity change, negative = inhibition": "inactive: 1.24%"},
      {"smiles": "O=[N+]([O-])OCC(CO[N+](=O)[O-])(CO[N+](=O)[O-])CO[N+](=O)[O-]", "activity change, negative = inhibition": "inactive: -10.6% [at 0.0915 µM]"},
      {"smiles": "O=[N+]([O-])c1cccc([N+](=O)[O-])c1", "activity change, negative = inhibition": "inactive: -2.69%"},
      {"smiles": "Cc1ccc(NP(C)(=O)Oc2ccccc2)c(C)c1", "note": "(stereo unspecified)", "activity change, negative = inhibition": "inactive: -6.01%"},
      {"smiles": "COc1ccccc1OP(C)(=O)Nc1ccc(C)cc1", "note": "(stereo unspecified)", "activity change, negative = inhibition": "inactive: 2.92%"},
      {"smiles": "COc1ccc(OP(C)(=O)Nc2cccc(F)c2)cc1", "note": "(stereo unspecified)", "activity change, negative = inhibition": "inactive: -3.24%"},
      {"smiles": "O=[N+]([O-])[O-].[NH4+]", "activity change, negative = inhibition": "inactive: -5.32%"},
      {"smiles": "CCOP(C)(=S)SCC(=O)NC(C)C(=O)O", "note": "(stereo unspecified)", "activity change, negative = inhibition": "inactive: -8.52%"},
      {"smiles": "CP(=O)(Nc1ccccn1)Oc1ccc(Cl)cc1", "note": "(stereo unspecified)", "activity change, negative = inhibition": "inactive: 9.95%"},
      {"smiles": "CP(=O)(NC(=O)Nc1ccccc1)Oc1ccccc1", "note": "(stereo unspecified)", "activity change, negative = inhibition": "inactive: -3.38%"},
      {"smiles": "CP(=S)(Nn1cnnc1)Oc1ccccc1", "note": "(stereo unspecified)", "activity change, negative = inhibition": "inactive: -4.03%"},
      {"smiles": "N1=C(c2nnc(-c3nn[nH]n3)nn2)NNN1", "activity change, negative = inhibition": "inactive: 23.3% [at 11.4 µM]"}
    ]}
  ]
}
